Measured values as given in ChEMBL document CHEMBL5346971, “Discovery of the First Irreversible HDAC6 Isoform Selective Inhibitor with Potent Anti-Multiple Myeloma Activity” (J Med Chem, 2023).

Amino acid sequences for entries named in this document (tags omitted).
UniProt Q92769, whole entry: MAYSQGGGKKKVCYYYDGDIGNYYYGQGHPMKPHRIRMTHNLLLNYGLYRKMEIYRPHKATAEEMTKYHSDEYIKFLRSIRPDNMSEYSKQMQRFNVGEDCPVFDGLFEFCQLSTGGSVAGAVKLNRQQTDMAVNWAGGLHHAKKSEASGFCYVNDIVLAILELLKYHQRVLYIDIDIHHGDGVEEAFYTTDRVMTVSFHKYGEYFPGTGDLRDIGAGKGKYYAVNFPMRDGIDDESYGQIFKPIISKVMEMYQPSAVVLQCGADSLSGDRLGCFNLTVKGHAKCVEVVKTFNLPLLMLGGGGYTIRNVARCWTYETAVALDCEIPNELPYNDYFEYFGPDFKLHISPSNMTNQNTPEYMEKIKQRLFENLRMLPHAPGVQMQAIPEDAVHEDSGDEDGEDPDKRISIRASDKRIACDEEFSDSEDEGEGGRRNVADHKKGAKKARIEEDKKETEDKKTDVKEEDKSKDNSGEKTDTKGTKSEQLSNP

Target: Histone deacetylase 2 (Homo sapiens, UniProt Q92769)
Test: Inhibition of C-terminal FLAG-tagged human full length recombinant HDAC2 (1 to 488 residues) expressed in Sf9 cells using Boc-Lys(acetyI)-AMC as substrate preincubated with enzyme for 1 hr followed by substrate addition and measured after 30 mins by fluorescence based analysis

O=C(CCCCCOc1no[n+]([O-])c1S(=O)(=O)c1ccccc1)NO
IC50: 300 nM
